Among the data in patent US10487084B2, “Toll-like receptor 7 (TLR7) agonists having a heterobiaryl moiety, conjugates thereof, and methods and uses therefor” (BRISTOL-MYERS SQUIBB COMPANY, priority 2017, dated 2019) are EC50 values, retold here.

By UniProt entry, the sequences of proteins in these tests, tags left out. Residues count along the entry.
UniProt Q9NYK1, 27-1049 limits assumed: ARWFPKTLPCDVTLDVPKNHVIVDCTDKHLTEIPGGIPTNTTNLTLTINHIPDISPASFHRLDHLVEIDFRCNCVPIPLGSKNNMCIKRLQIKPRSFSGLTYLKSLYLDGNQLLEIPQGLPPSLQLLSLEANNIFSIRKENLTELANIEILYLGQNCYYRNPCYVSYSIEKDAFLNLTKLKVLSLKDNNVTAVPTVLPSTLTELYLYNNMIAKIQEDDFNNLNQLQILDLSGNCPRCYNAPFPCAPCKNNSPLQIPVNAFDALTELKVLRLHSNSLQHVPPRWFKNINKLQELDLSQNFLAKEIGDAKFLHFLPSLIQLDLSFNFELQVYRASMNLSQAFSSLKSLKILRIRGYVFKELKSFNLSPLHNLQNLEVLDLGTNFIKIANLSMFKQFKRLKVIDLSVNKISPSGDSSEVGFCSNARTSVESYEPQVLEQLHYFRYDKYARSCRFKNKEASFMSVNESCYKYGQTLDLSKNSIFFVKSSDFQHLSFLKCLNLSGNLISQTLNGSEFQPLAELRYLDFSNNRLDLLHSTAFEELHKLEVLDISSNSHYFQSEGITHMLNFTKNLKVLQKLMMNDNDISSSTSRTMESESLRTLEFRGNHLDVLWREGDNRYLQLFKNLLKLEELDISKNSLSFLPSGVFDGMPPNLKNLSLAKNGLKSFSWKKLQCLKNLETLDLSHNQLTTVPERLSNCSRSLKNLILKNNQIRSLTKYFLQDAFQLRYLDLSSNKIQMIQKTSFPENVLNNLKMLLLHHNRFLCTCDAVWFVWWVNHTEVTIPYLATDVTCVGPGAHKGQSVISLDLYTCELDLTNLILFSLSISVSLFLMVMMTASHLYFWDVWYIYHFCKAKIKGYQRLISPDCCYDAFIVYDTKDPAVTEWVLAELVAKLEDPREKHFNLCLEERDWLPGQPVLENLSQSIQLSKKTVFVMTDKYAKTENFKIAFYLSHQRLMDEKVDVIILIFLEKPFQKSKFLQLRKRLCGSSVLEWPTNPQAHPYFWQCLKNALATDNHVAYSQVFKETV

One experiment has as its system interleukin 6 (IL-6). Description: Interleukin 6 induction assay in human whole blood. The note with it: read-out: IL-6 Induction (EC50), 37° C. for 20 h, AlphaLISA, tested form: TFA salt.
The next experiment has as its target human TLR7 (Homo sapiens (Human), UniProt Q9NYK1). The experiment can be described thus: HEK-Blue TLR7 reporter assay (TLR7 agonism). The note with it: read-out: TLR7 Agonism (EC50); HEK-Blue TLR7 cells, SEAP reporter, 18 h treatment; tested form: TFA salt. It counts as cell-based.

Take `CCCCOc1nc(N)c2nc(O)n(Cc3ccc(-c4cnn(CC(=O)NCCN)c4)cc3)c2n1`: the values for the EC50 in the experiment on interleukin 6 (IL-6) and at human TLR7 were 12.6 nM and 5.9 nM, respectively.
